Test results from PubChem BioAssay (NCI).
Values joined by “and” are separate entries in the source; they are usually repeats but may differ in a detail not shown here. Identical values can stand only once. The entries are a selection whose mix differs from that of the whole data set.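 Method: cells in 96-well plates; compound added at one concentration; 48 h incubation; percent growth measured; values under 10 scored active.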 Active and inactive are the calls of the source.

How the values were obtained:
Experiment in all cases: NCI-60 one-dose screen, 48 h (100 = growth as untreated, 0 = no growth, -100 = all killed)
Conditions in all cases: 10 µM unless noted
MOLT-4 leukemia = test system: MOLT-4 leukemia
SR leukemia = test system: SR leukemia
RPMI-8226 leukemia = test system: RPMI-8226 leukemia
OVCAR-8 ovarian = test system: OVCAR-8 ovarian
OVCAR-5 ovarian = test system: OVCAR-5 ovarian
OVCAR-4 ovarian = test system: OVCAR-4 ovarian
SK-OV-3 ovarian = test system: SK-OV-3 ovarian
IGROV1 ovarian = test system: IGROV1 ovarian
OVCAR-3 ovarian = test system: OVCAR-3 ovarian
HS 578T breast = test system: HS 578T breast
NCI/ADR-RES ovarian = test system: NCI/ADR-RES ovarian
T-47D breast = test system: T-47D breast
BT-549 breast = test system: BT-549 breast
MDA-MB-435 melanoma = test system: MDA-MB-435 melanoma
SW-620 colon = test system: SW-620 colon
MCF7 breast = test system: MCF7 breast
HCT-116 colon = test system: HCT-116 colon
HCC-2998 colon = test system: HCC-2998 colon
KM12 colon = test system: KM12 colon

Row | Structure (SMILES) | growth (MOLT-4 leukemia) | growth (SR leukemia) | growth (RPMI-8226 leukemia) | growth (OVCAR-8 ovarian) | growth (OVCAR-5 ovarian) | growth (OVCAR-4 ovarian) | growth (SK-OV-3 ovarian) | growth (IGROV1 ovarian) | growth (OVCAR-3 ovarian) | growth (HS 578T breast) | growth (NCI/ADR-RES ovarian) | growth (T-47D breast) | growth (BT-549 breast) | growth (MDA-MB-435 melanoma) | growth (SW-620 colon) | growth (MCF7 breast) | growth (HCT-116 colon) | growth (HCC-2998 colon) | growth (KM12 colon)
1 | ClCCN1CCc2ccccc2C1 | inactive: 86% | inactive: 82.4% | inactive: 94.4% | inactive: 102% | inactive: 101% | inactive: 114% | inactive: 108% | inactive: 73.3% | inactive: 112% | inactive: 96.8% | inactive: 101% | inactive: 95.8% | inactive: 96.6% | inactive: 104% | inactive: 94.7% | inactive: 96.2% | inactive: 94.9% | inactive: 97.4% | inactive: 105%
2 | N/C(=N\N=C\c1ccc([N+](=O)[O-])o1)N[N+](=O)[O-] | inactive: 88.2% | inactive: 91.6% | inactive: 86.7% | inactive: 90.3% | inactive: 113% | inactive: 103% | inactive: 96.5% | inactive: 108% | inactive: 103% | inactive: 99.7% | inactive: 101% | inactive: 92.1% | inactive: 104% | inactive: 101% | inactive: 100% | inactive: 80.3% | inactive: 95.3% | inactive: 118% | inactive: 94.7%
3 | Cc1ccc(S(=O)(=O)n2cc(C3(O)CC(CC#N)OC3=O)c3cc(Br)ccc32)cc1 (centres undefined) | inactive: 95.2% | inactive: 102% | inactive: 74.5% | inactive: 98.5% | inactive: 109% | inactive: 113% | inactive: 156% | inactive: 84.8% | inactive: 99.8% | inactive: 93.2% | inactive: 113% | inactive: 128% | inactive: 108% | inactive: 109% | inactive: 100% | inactive: 104% | inactive: 111% | inactive: 125% | inactive: 100%
4 | CCN(CCCl)/N=N/c1nc2nc[nH]c(=O)c2[nH]1 | inactive: 103% | inactive: 84.4% | inactive: 108% | inactive: 105% | inactive: 105% | inactive: 105% | inactive: 97.1% | inactive: 104% | inactive: 112% | inactive: 120% | inactive: 96.1% | inactive: 77.6% | inactive: 116% | inactive: 104% | inactive: 103% | inactive: 104% | inactive: 107% | inactive: 102% | inactive: 99.4%
5 | CC1(CCC2(C)N=C(NN=C(CCl)CCl)SP2(=O)Nc2ncccn2)N=C(NN=C(CCl)CCl)SP1(=O)Nc1ncccn1 (centres undefined) | inactive: 114% [100 µM] | inactive: 101% [100 µM] | inactive: 103% [100 µM] | inactive: 99.6% [100 µM] | inactive: 106% [100 µM] | inactive: 100% [100 µM] | inactive: 101% [100 µM] | inactive: 95.8% [100 µM] | inactive: 109% [100 µM] | inactive: 105% [100 µM] | inactive: 100% [100 µM] | inactive: 97.9% [100 µM] | inactive: 108% [100 µM] | inactive: 102% [100 µM] | inactive: 104% [100 µM] | inactive: 100% [100 µM] | inactive: 105% [100 µM] | inactive: 98.5% [100 µM] | inactive: 102% [100 µM]
6 | NC(=O)Nc1ccc([As](=O)(O)O)cc1 | inactive: 101% | inactive: 88.6% | inactive: 104% | inactive: 101% | inactive: 109% | inactive: 103% | inactive: 112% | inactive: 119% | inactive: 117% | inactive: 115% | inactive: 105% | inactive: 100% | inactive: 102% | inactive: 106% | inactive: 105% | inactive: 88.9% | inactive: 108% | inactive: 106% | inactive: 115%
7 | Cc1ccc(S(=O)(=O)n2cc([C@@]3(O)C[C@H](CC#N)OC3=O)c3ccccc32)cc1 | active: 6.25% | active: 1.03% | active: -24.7% | inactive: 12.2% | inactive: 46.6% | inactive: 38.4% | inactive: 40.8% | active: -15.2% | active: -49.3% | active: -10.3% | active: -0.495% | inactive: 51.8% | active: 2.62% | active: -52.4% | active: 9.71% | active: -1.71% | inactive: 42.4% | active: -24.5% | active: -35%
8 | ClCCN1CCn2cnc3ncnc-3c21 | inactive: 99.9% | inactive: 86.8% | inactive: 113% | inactive: 108% | inactive: 108% | inactive: 103% | inactive: 105% | inactive: 114% | inactive: 109% | inactive: 102% | inactive: 112% | inactive: 96.1% | inactive: 94.4% | inactive: 105% | inactive: 105% | inactive: 97.6% | inactive: 109% | inactive: 107% | inactive: 102%
9 | CCCCOP(=O)(OCCCC)N1CCCC1C(=O)O (centres undefined) | inactive: 101% | inactive: 109% | inactive: 97.1% | inactive: 103% | inactive: 107% | inactive: 101% | inactive: 92.8% | inactive: 114% | inactive: 117% | inactive: 95.7% | inactive: 104% | inactive: 87.7% | inactive: 102% | inactive: 106% | inactive: 98.3% | inactive: 97.4% | inactive: 96.5% | inactive: 111% | inactive: 108%
10 | O=[As](O)(c1ccc(O)cc1)c1ccccc1O | inactive: 100% | inactive: 104% | inactive: 76.7% | inactive: 107% | inactive: 99.6% | inactive: 98.5% | inactive: 98% | inactive: 111% | inactive: 108% | inactive: 97% | inactive: 98% | inactive: 97% | inactive: 83.6% | inactive: 99.1% | inactive: 97% | inactive: 96.2% | inactive: 88.3% | inactive: 73.3% | inactive: 106%
11 | CCN(CC)C(=O)Oc1ccc(/C=N/NC(N)=S)nc1 | inactive: 78.3% | inactive: 48.3% | inactive: 86.7% | inactive: 63.2% | inactive: 84.4% | inactive: 59.6% | inactive: 75.1% | inactive: 70.8% | inactive: 78.3% | inactive: 113% | inactive: 89% | inactive: 73.3% | inactive: 83% | inactive: 92.8% | inactive: 89.7% | inactive: 85.1% | inactive: 82.5% | inactive: 81.7% | inactive: 73.6%
12 | CCCCOP(OCCCC)OCCCC | inactive: 97.5% | inactive: 95.3% | inactive: 137% | inactive: 113% | inactive: 95.9% | inactive: 102% | inactive: 112% | inactive: 115% | inactive: 125% | inactive: 120% | inactive: 107% | inactive: 105% | inactive: 107% | inactive: 116% | inactive: 107% | inactive: 98.2% | inactive: 97.2% | inactive: 113% | inactive: 113%
13 | Cc1ccc(NCCCl)c2c(=O)c3ccccc3sc12 | inactive: 105% | inactive: 92.2% | inactive: 103% | inactive: 108% | inactive: 93.5% | inactive: 102% | inactive: 117% | inactive: 89.5% | inactive: 111% | inactive: 108% | inactive: 89.4% | inactive: 103% | inactive: 103% | inactive: 90.7% | inactive: 97.7% | inactive: 91.1% | inactive: 97.3% | inactive: 94.3% | inactive: 106%
14 | Clc1ccc(P(Cl)Cl)cc1 | inactive: 93.9% | inactive: 93.9% | inactive: 118% | inactive: 96.9% | inactive: 88.9% | inactive: 105% | inactive: 111% | inactive: 106% | inactive: 116% | inactive: 120% | inactive: 101% | inactive: 120% | inactive: 107% | inactive: 110% | inactive: 102% | inactive: 94.8% | inactive: 111% | inactive: 102% | inactive: 110%
15 | COc1ccc(C2N=C(NN=C(CCl)CCl)SP2(=O)Nc2ncccn2)c(OC)c1 (centres undefined) | inactive: 110% [100 µM] | inactive: 100% [100 µM] | inactive: 102% [100 µM] | inactive: 105% [100 µM] | inactive: 102% [100 µM] | inactive: 101% [100 µM] | inactive: 95.5% [100 µM] | inactive: 99% [100 µM] | inactive: 109% [100 µM] | inactive: 93.3% [100 µM] | inactive: 97.8% [100 µM] | inactive: 92.3% [100 µM] | inactive: 102% [100 µM] | inactive: 99.1% [100 µM] | inactive: 104% [100 µM] | inactive: 90.7% [100 µM] | inactive: 97.1% [100 µM] | inactive: 101% [100 µM] | inactive: 99.4% [100 µM]
16 | CCOP(=O)(CCBr)OCC | inactive: 103% | inactive: 100% and inactive: 111% | inactive: 96.7% and inactive: 104% | inactive: 104% and inactive: 94.4% | inactive: 106% and inactive: 97% | inactive: 109% and inactive: 90.7% | inactive: 114% and inactive: 109% | inactive: 105% and inactive: 125% | inactive: 114% and inactive: 118% | inactive: 109% and inactive: 95.4% | inactive: 113% and inactive: 105% | inactive: 108% and inactive: 96.4% | inactive: 100% and inactive: 106% | inactive: 96.3% and inactive: 95.1% | inactive: 100% and inactive: 98.1% | inactive: 86.8% and inactive: 93.4% | inactive: 107% and inactive: 103% | inactive: 114% and inactive: 105% | inactive: 104% and inactive: 108%
